Measurements as given in PubChem BioAssay (Tox21).
Several values for one entry are separate records, joined by “and”; a condition that tells them apart may be missing. Equal values may be shown once. Only a part is listed here, and it is no random draw. Inconclusive results are not listed. Activity calls are given as the source filed them. Unless noted, the call rests on the fitted dose curve; in most records, active means well fitted curve in the direction sought with a large enough effect in the repeat runs; inconclusive means weak or mixed curves; inactive means no such curve, though single readings can be large; an effect the other way counts as inactive or inconclusive.

Protein sequences, listed by entry. Tags and fused reporters are not part of them.
UniProt P10275, whole entry: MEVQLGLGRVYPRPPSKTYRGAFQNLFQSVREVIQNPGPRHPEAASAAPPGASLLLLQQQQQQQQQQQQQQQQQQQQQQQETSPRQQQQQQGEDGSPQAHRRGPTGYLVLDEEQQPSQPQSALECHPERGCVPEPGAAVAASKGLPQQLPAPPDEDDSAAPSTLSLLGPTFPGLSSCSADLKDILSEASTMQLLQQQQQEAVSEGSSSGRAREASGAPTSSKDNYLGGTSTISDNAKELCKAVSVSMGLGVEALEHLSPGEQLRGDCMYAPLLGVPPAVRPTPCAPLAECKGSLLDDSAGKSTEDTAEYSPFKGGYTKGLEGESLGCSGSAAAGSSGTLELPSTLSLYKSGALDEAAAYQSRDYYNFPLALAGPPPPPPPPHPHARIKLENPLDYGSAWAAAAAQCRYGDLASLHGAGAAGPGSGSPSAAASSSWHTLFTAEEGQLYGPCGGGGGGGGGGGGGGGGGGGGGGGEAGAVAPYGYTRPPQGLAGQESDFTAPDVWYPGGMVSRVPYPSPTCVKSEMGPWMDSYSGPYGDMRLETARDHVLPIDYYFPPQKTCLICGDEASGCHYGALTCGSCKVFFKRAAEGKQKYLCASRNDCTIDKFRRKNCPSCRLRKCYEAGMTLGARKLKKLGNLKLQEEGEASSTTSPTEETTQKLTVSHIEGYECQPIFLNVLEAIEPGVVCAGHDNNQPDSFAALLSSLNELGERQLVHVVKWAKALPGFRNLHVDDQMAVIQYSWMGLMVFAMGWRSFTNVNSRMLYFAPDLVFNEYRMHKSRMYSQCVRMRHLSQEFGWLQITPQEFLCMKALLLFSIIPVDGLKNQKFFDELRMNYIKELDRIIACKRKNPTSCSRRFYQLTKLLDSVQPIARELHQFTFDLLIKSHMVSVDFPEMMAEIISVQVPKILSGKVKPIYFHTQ
UniProt P03372, whole entry: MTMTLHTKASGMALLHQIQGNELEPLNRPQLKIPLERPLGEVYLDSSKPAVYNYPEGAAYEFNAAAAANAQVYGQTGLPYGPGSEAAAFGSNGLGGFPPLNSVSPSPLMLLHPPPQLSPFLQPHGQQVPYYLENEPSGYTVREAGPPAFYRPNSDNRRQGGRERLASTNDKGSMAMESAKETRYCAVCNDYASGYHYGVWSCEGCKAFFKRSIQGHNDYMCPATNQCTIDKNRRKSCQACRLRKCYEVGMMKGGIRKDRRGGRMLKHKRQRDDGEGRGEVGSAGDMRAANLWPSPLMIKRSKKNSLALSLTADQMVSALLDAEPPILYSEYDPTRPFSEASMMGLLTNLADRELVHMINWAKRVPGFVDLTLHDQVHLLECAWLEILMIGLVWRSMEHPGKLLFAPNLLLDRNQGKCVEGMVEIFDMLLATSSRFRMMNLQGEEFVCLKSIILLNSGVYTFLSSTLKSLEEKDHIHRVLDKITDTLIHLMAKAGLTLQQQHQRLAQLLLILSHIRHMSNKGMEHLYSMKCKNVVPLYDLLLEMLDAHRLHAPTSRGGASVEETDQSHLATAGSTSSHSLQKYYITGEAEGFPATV

Experiments:
[1] = qHTS assay to identify small molecule antagonists of the androgen receptor (AR) signaling pathway using the MDA cell line - cell viability counter screen (AID 743041; further: nearly all actives have a fitted effect of over 45% in size); settings: MDA-kb2 viability, CellTiter-Fluor, 16 h, cells co-treated with R1881 androgen agonist
Summary of the method: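 MDA-kb2 AR-luc human breast carcinoma cells (MMTV-luciferase, AR/GR responsive) were treated with compounds plus R1881 agonist for 16 h at 37 °C. Viability was read as CellTiter-Fluor fluorescence in the same wells as the reporter assay.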

[2] = qHTS assay to identify small molecule antagonists of the thyroid receptor (TR) signaling pathway - cell viability counter screen (AID 743064); settings: GH3.TRE-Luc viability, CellTiter-Fluor, 24 h; series mostly up to 70.3 µM; further: nearly all actives have a fitted effect of over 50% in size
Summary of the method: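 Viability of T3-stimulated (1 nM final) GH3.TRE-Luc cells is measured by CellTiter-Fluor fluorescence after 23.5 h compound exposure at 37 °C plus 30 min reagent incubation.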

[3] = qHTS assay to identify small molecule antagonists of the thyroid receptor (TR) signaling pathway (AID 743065); settings: GH3.TRE-Luc, T3-stimulated luciferase inhibition, 23.5 h; series mostly up to 70.3 µM; further: nearly all actives have a fitted effect of over 55% in size
Summary of the method: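 GH3.TRE-Luc rat pituitary cells carrying two TR response elements driving luciferase were plated for 4 h, given compound plus 1 nM T3 (final), and incubated 23.5 h at 37 C. ONE-Glo luminescence measured reporter inhibition; CellTiter-Fluor fluorescence tracked cytotoxicity.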

[4] = system: thyroid hormone receptor (rat, GH3 cells); assay: qHTS assay to identify small molecule agonists of the thyroid receptor (TR) signaling pathway (AID 743066; calls by dose curve); settings: GH3.TRE-Luc cells, TR agonist luciferase, 24 h
[5] = qHTS assay to identify small molecule antagonists of the estrogen receptor alpha (ER-alpha) signaling pathway - cell viability counter screen (AID 743074; calls by dose curve; further: nearly all actives have a fitted effect of over 45% in size); settings: ERalpha-bla HEK293 viability, CellTiter-Glo luminescence, 18 h
[6] = target: Androgen receptor (Homo sapiens) (UniProt P10275); assay: qHTS assay to identify small molecule agonists of the androgen receptor (AR) signaling pathway (AID 743036; active means well fitted activation curve with a large enough effect in the signal ratio in the repeat runs, with a control signal flat, not every such curve was filed as active; the % refers to the signal ratio); settings: HEK293 AR-UAS-bla GripTite, beta-lactamase FRET ratio, 16 h; at 62.4 µM (top of the series) unless noted
[7] = target: Androgen receptor (Homo sapiens) (UniProt P10275); assay: qHTS assay to identify small molecule agonists of the androgen receptor (AR) signaling pathway using the MDA cell line (AID 743040; further: nearly all actives have a fitted effect of over 20% in size); settings: MDA-kb2 AR-luc cells, MMTV luciferase, 16 h, hits give high values; at 70.3 µM (top of the series) unless noted
[8] = target: Androgen receptor (Homo sapiens) (UniProt P10275); assay: qHTS assay to identify small molecule antagonists of the androgen receptor (AR) signaling pathway using the MDA cell line (AID 743042; further: nearly all actives have a fitted effect of over 55% in size); settings: MDA-kb2 AR-luc, MMTV luciferase, R1881 antagonist, 16 h; at 70.3 µM (top of the series) unless noted
[9] = target: Estrogen receptor (Homo sapiens) (UniProt P03372); assay: qHTS assay to identify small molecule antagonists of the estrogen receptor alpha (ER-alpha) signaling pathway (AID 743069; active means well fitted curve in the direction sought with a large enough effect in the signal ratio in the repeat runs, not every such curve was filed as active; the % refers to the signal ratio); settings: HEK293 ER-alpha-UAS-bla, beta-lactamase ratio, antagonist mode
Summary of the method: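 HEK293 cells stably carrying an ER-alpha-UAS-bla beta-lactamase reporter were pre-cultured overnight in 2% charcoal-stripped FBS medium. Test compounds in DMSO were added together with 17beta-estradiol for 18 hr at 37C. Read-out was fluorescence after 2 hr with LiveBLAzer B/G FRET substrate at room temperature.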

[10] = target: Estrogen receptor (Homo sapiens) (UniProt P03372); assay: qHTS assay to identify small molecule agonists of the estrogen receptor alpha (ER-alpha) signaling pathway (AID 743075; calls by dose curve); settings: HEK293 ER-alpha-UAS-bla, beta-lactamase FRET ratio, 18 h
On the % scale 0 is the no-effect control and ±100 the full control effect.

C/C1=C2N=C(/C=C3N=C(/C(C)=C4\[N-][C@@](C)([C@@H]5N=C1[C@](C)(CCC(=O)NC[C@@H](C)OP(=O)([O-])O[C@H]1[C@@H](O)[C@@H](n6cnc7cc(C)c(C)cc76)O[C@@H]1CO)[C@H]5CC(N)=O)[C@@](C)(CC(N)=O)[C@@H]4CCC(N)=O)[C@@](C)(CC(N)=O)[C@@H]\3CCC(N)=O)C(C)(C)[C@@H]/2CCC(N)=O.[C-]#N.[Co+3]
inactive: viability change, negative = cytotoxic ([1]; at 32.5 µM (top of the series)) -4.91% | Potency [2] | Potency [3] | activation ([4]; at 39.4 µM (top of the series)) -1.09% | activity, negative = cytotoxicity ([5]; at 32.6 µM (top of the series)) 19.1%

CC(C)N(CCO)C(C)C
inactive: activation [6] -2.61% | activity change [7] 2.02% | viability change, negative = cytotoxic ([1]; at 70.3 µM (top of the series)) -24.7% | activity change, negative = inhibition [8] 5.3% | Potency [2] | Potency [3] | activation ([4]; at 83.9 µM (top of the series)) -0.644% | activity, negative = cytotoxicity ([5]; at 69.4 µM (top of the series)) -8.02%

O=[N+]([O-])c1cccc([N+](=O)[O-])c1
inactive: viability change, negative = cytotoxic ([1]; at 70.3 µM (top of the series)) 5.36% | viability change, negative = cytotoxic ([1]; at 95 µM (top of the series)) -34.4% | Potency [2] | Potency [3] | activation ([4]; at 83.9 µM (top of the series)) -0.897% | activation ([4]; at 95.2 µM (top of the series)) -4.79% | activity, negative = inhibition ([9]; at 69.4 µM (top of the series)) -3.72% | activity, negative = inhibition ([9]; at 79.1 µM (top of the series)) -7.21% | activity, negative = cytotoxicity ([5]; at 69.4 µM (top of the series)) -11.3% | activation ([10]; at 70.1 µM (top of the series)) 0.415% | activation ([10]; at 79.1 µM (top of the series)) -0.676%

OCCSCCO
inactive: viability change, negative = cytotoxic ([1]; at 70.3 µM (top of the series)) -8.39% | viability change, negative = cytotoxic ([1]; at 95 µM (top of the series)) 26.7% | Potency [2] | Potency [3] | activation ([4]; at 83.9 µM (top of the series)) 0.821% | activation ([4]; at 95.2 µM (top of the series)) 0.948% | activity, negative = cytotoxicity ([5]; at 69.4 µM (top of the series)) 10.6% | activity, negative = cytotoxicity ([5]; at 79.1 µM (top of the series)) -12.6%

COP(C)(=O)OC
inactive: viability change, negative = cytotoxic ([1]; at 70.3 µM (top of the series)) -0.765% | viability change, negative = cytotoxic ([1]; at 95 µM (top of the series)) 4.78% | Potency [2] | Potency [3] | activation ([4]; at 83.9 µM (top of the series)) 0.221% | activation ([4]; at 95.2 µM (top of the series)) -0.253% | activity, negative = inhibition ([9]; at 69.4 µM (top of the series)) 26.7% | activity, negative = inhibition ([9]; at 79.1 µM (top of the series)) -3.85% | activity, negative = cytotoxicity ([5]; at 79.1 µM (top of the series)) -3.94% | activation ([10]; at 70.1 µM (top of the series)) -1.63% | activation ([10]; at 79.1 µM (top of the series)) -1.63%

N=C(N)N[N+](=O)[O-]
inactive: activation [6] 0.285% [at 79.1 µM] | activity change [7] -0.399% [at 95 µM] | viability change, negative = cytotoxic ([1]; at 95 µM (top of the series)) -4.14% | activity change, negative = inhibition [8] -0.745% [at 95 µM] | Potency [2] | Potency [3] | activation ([4]; at 95.2 µM (top of the series)) -0.466% | activity, negative = inhibition ([9]; at 79.1 µM (top of the series)) -4.46% | activity, negative = cytotoxicity ([5]; at 79.1 µM (top of the series)) 11.9% | activation ([10]; at 79.1 µM (top of the series)) -1.36%

CCOP(=O)(CC)Oc1ccc([N+](=O)[O-])cc1 (stereo unspecified)
inactive: activation [6] 1.04% | activity change [7] -5.33% | viability change, negative = cytotoxic ([1]; at 70.3 µM (top of the series)) -2.7% | Potency [2] | Potency [3] | activation ([4]; at 83.9 µM (top of the series)) 0.0893% | activity, negative = cytotoxicity ([5]; at 69.4 µM (top of the series)) -22% | activation ([10]; at 70.1 µM (top of the series)) 4.9%

Cc1cccc([N+](=O)[O-])c1[N+](=O)[O-]
inactive: activation [6] 14.6% | activity change [7] 88.2% | activation ([4]; at 83.9 µM (top of the series)) -3.93%

Cc1c([N+](=O)[O-])cccc1[N+](=O)[O-]
inactive: viability change, negative = cytotoxic ([1]; at 70.3 µM (top of the series)) 5.93% and 0.962% | Potency [2] | Potency [3] | activation ([4]; at 83.9 µM (top of the series)) -4.77% and 3.36% | activity, negative = cytotoxicity ([5]; at 69.4 µM (top of the series)) 7.56%

O=[N+]([O-])[O-].[NH4+]
inactive: viability change, negative = cytotoxic ([1]; at 70.3 µM (top of the series)) -2.15% and 3.03% and 0.102% | Potency [2] | activity, negative = cytotoxicity ([5]; at 69.4 µM (top of the series)) 9.13% and 12.4% and 25.2%

Nc1cc([N+](=O)[O-])cc([N+](=O)[O-])c1O
inactive: Potency [3] | activation ([4]; at 95.2 µM (top of the series)) -4.04% | activation ([10]; at 79.1 µM (top of the series)) -4.3%

Cc1ccc([N+](=O)[O-])cc1[N+](=O)[O-]
inactive: viability change, negative = cytotoxic ([1]; at 70.3 µM (top of the series)) -5.17% and 3.6% | Potency [2] | Potency [3] | activation ([4]; at 83.9 µM (top of the series)) -0.114% and 6.21% | activity, negative = inhibition ([9]; at 69.4 µM (top of the series)) 8.59% and -23% | activity, negative = cytotoxicity ([5]; at 69.4 µM (top of the series)) -18.4% and 8.45%
